The assay deals with Rattus norvegicus. Put plainly: Antialzheimer activity in Wistar rat scopolamine-induced cognition impairment model assessed as decrease in amount of errors plus baits not found during exploration at 1 umol/100 g body weight, ip treated for 5 mins prior to scopolamine-challenge measured after 20 to 120 mins by eight-arm radial maze test. The assay is classed as functional, organism-based. In short, it runs like this:
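Female 60-day-old Wistar rats (Han:Wist) trained in an eight-arm radial maze to error-free trials under 60 s on three consecutive days; each animal served as its own control. Test agent given i.p. in saline 5 min before scopolamine (0.05 mg/100 g b. wt., i.p. in saline). Errors plus baits not found after 10 min, and total searching time, recorded before and 20, 60, 120 min after scopolamine; n = 14, mean ± SEM.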

Activity calls are given as the source filed them. The rule behind the calls is not given here.

In the case of `Nc1c2c(nc3ccccc13)CCCC2` [TACRINE], the result was Active.

The values above are taken from ChEMBL document CHEMBL3124940, “Design, synthesis and biological evaluation of D-ring opened galantamine analogs as multifunctional anti-Alzheimer agents” (Eur J Med Chem, 2014).
